In data set [1] the target is T1, Lysophosphatidic acid receptor 2 (Homo sapiens, UniProt Q9HBW0). Put plainly: Activity at human LPA2 receptor in RH7777 cells at 30 uM by calcium mobilization assay.
The nature of data set [2]: Dissociation constant, pKa of the compound.
Data set [3] addresses T2, Lysophosphatidic acid receptor 1 (Homo sapiens, UniProt Q92633). The data set can be described thus: Activity at human LPA1 receptor in RH7777 cells at 30 uM by calcium mobilization assay.
For data set [4], the target named is T3, Lysophosphatidic acid receptor 3 (Homo sapiens, UniProt Q9UBY5). The data set can be described thus: Activity at human LPA3 receptor in RH7777 cells at 30 uM by calcium mobilization assay.
Data set [5] addresses T3, Lysophosphatidic acid receptor 3. The data set can be described thus: Activity at human LPA3 receptor expressed in RH7777 cells by calcium mobilization assay.
For data set [6], the target named is T2, Lysophosphatidic acid receptor 1. The data set can be described thus: Activity at human LPA1 receptor expressed in RH7777 cells by calcium mobilization assay.
Data set [7] deals with T1, Lysophosphatidic acid receptor 2. The data set can be described thus: Activity at human LPA2 receptor expressed in RH7777 cells by calcium mobilization assay.

By UniProt entry, the sequences of proteins in these tests, tags left out. Where a name states a change or a piece, a line headed by the entry shows the natural chain unless it says otherwise.
UniProt Q9HBW0, whole entry, looked up: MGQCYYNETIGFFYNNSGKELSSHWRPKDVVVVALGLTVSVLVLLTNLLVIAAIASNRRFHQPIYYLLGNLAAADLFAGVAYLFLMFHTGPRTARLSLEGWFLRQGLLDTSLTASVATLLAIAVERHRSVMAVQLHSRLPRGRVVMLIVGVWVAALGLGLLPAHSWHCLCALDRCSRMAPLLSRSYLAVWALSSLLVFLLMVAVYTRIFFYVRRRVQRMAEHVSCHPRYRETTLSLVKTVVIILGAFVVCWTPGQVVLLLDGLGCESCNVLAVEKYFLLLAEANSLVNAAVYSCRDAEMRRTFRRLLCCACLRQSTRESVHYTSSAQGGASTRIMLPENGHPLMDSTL
UniProt Q92633: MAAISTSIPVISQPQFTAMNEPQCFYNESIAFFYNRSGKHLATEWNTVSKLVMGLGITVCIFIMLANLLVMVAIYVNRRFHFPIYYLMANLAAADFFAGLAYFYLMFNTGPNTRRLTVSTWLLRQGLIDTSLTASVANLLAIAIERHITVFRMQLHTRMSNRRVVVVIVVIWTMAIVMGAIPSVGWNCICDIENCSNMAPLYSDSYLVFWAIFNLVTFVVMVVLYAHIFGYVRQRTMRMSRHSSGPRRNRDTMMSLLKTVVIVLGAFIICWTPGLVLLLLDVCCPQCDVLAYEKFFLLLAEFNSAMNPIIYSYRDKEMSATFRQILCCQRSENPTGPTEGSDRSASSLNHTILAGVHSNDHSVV
UniProt Q9UBY5: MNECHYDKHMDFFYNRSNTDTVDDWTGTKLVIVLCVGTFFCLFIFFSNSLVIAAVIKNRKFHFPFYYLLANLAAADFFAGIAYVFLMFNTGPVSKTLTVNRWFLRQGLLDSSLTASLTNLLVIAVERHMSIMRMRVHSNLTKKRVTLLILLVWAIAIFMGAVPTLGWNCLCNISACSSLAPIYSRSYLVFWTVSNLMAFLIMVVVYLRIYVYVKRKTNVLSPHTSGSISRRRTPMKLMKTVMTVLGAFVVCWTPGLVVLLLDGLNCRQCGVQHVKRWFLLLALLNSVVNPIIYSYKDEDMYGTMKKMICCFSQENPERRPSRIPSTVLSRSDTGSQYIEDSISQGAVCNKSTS

These results are taken from ChEMBL document CHEMBL1146020, “Phosphonothioate and fluoromethylene phosphonate analogues of cyclic phosphatidic acid: Novel antagonists of lysophosphatidic acid receptors” (2006).

Consider `CCCCCCCCCCCCCCCCCC(=O)OCC1CCP(=O)(O)O1` (configuration not stated), for which the EC50 entry in data set [1], in data set [3] and in data set [4] was “Not Active” each time. Also, the IC50 result in data set [1], in data set [3] and in data set [4] was “Not Active” in each case. In data set [2], this molecule showed a pKa of 6.58.
For the molecule `CCCCCCCCCCCCCCCCCC(=O)OCC1CCP(O)(=S)O1` (configuration not stated), the EC50 result in data set [1], in data set [3] and in data set [4] was “Not Active” throughout. In addition, the half-inhibitory concentration (IC50) entry is “Not Active” in data set [1], 1270 nM in data set [5] and 941 nM in data set [6]. The molecule also showed a pKa in data set [2] of 6.76. Besides, the results for the inhibition constant (Ki) in data set [5] and in data set [6] were 636 nM and 403 nM, respectively.
With `CCCCCCCCCCCCCCCCCC(=O)OC[C@@H]1CC(F)P(=O)(O)O1` (some centres not stated), the EC50 entry in data set [1], in data set [3] and in data set [4] was “Not Active” each time. The figures for the half-maximal inhibitory concentration (IC50) result in data set [1], in data set [5] and in data set [6] were “Not Active”, 7720 nM and 106 nM, respectively. Besides, the pKa in data set [2] amounted to 5.6. The inhibitory constant (Ki) in data set [5] was 3170 nM; in data set [6], 60.7 nM.
As for `CCCCCCCCCCCCCCCCCC(=O)OC[C@@H]1CC(F)(F)P(=O)(O)O1`, the IC50 result in data set [1] and in data set [6] was “Not Active” throughout. The pKa in data set [2] worked out at 4.62. The EC50 in data set [5] is above 7030 nM; in data set [4], “Not Active”; in data set [6], above 1940 nM; in data set [7] it was above 9460 nM. Besides, the Ki result in data set [7] is “Not Active”.
In the case of `CCCCCCCCCCCCCCCC(=O)OCC1CCP(O)(=S)O1` (configuration not stated), the EC50 entry in data set [1], in data set [3] and in data set [4] was “Not Active” each time. In addition, the IC50 entry in data set [1] was “Not Active”; in data set [5], 2340 nM; in data set [6] it was 799 nM. This molecule also gave a pKa in data set [2] of 6.48. Moreover, the Ki in data set [5] was determined as 1150 nM; in data set [6], 314 nM.
